The values that follow come from US6071908A (priority 1995, dated 2000).

Only a part of the results on these compounds is given; other tests are left out.

Experiment [1] is described as follows: Assay 1: radiolytic reduction of prodrug in formate buffer (or other solution), products analysed by HPLC. Particulars: prodrug 50 μM in sodium formate pH 7.0, anoxic, cobalt-60.
The test system of a further experiment is UV4 cells. Nature of the experiment: Cytotoxicity against UV4 cells, 4 hr aerobic exposure. Type of experiment: cell-based. Particulars: read-out: IC50, P (unirradiated prodrug); UV4, 4 hr aerobic exposure; mean ± SEM.

One may read the IC50 as the concentration that gives 50% inhibition. `C[N+](CCCl)(CCCl)Cc1ccc([N+](=O)[O-])cc1`: in experiment [1], the “G(+E), anoxic, Assay 1 (yield of effector)” value is listed as 0.20 μM/Gy. For the same molecule, the IC50 in the experiment with UV4 cells came out at 35 µM.

With `C[N+](CCCl)(CCCl)Cc1cccc([N+](=O)[O-])c1`, in experiment [1], the “G(+E), anoxic, Assay 1 (yield of effector)” value is reported as 0.045 μM/Gy.
